{"source": "paper PMC3082441", "about": "(Journal of medicinal chemistry, 2008)", "system": "endogenous tmACs expressed in HEK293T cells", "type": "biochemical, mammalian"}
{"smiles": "O=C(O)c1cc2c(cc1S(=O)(=O)O)C1C(C3C2C2(Cl)C(Cl)=C(Cl)C3(Cl)C2(Cl)Cl)C2(Cl)C(Cl)=C(Cl)C1(Cl)C2(Cl)Cl", "note": "(stereo not shown) [Compound 3, 1,2,3,4,5,6,7,8,13,13,14,14-dodecachloro-1,4,4a,4b,5,8,8a, 12b-octahydro-11-sulfo-1,4:5,8-dimethanotriphenylene-10-carboxylic acid]", "values": [{"measurement": "Inhibition of forskolin-stimulated AC activity in HEK293T whole cell extracts", "result": "inhibited this activity only slightly"}]}
